# Results: patent publication US20210138080A1, “CONJUGATES” (GLYKOS BIOMEDICAL OY, priority 2018, published 2021)
# System: NCI-N87 cancer cell line tumors
# Assay: in vivo trial, cancer cell xenografts on chicken egg chorioallantoic membrane (CAM): tumor weight
# Conditions: repeated dose
# Procedure: The study was performed by Inovotion SAS (La Tronche, France). Fertilized chicken eggs were incubated at 37.5° C. with 50% relative humidity for 9 days (E9), when the chorioallantoic membrane (CAM) was dropped down by drilling a small hole through the eggshell into the air sac, and a 1 cm^2 window was cut in the eggshell above the CAM. The NCI-N87 cell line was cultivated in RPMI-1640 medium supplemented with 10% FBS and 1% penicillin/streptomycin. On day E9, cells were detached by trypsin, washed with complete medium and suspended in graft medium. An inoculum of 2 million cells was added onto the CAM of each egg. […] Living grafted eggs were randomized into groups and were then treated on day E10, E11.5, E13, E14.5 and E17 (five doses) by dropping 100 μl of vehicle (PBS) and compounds (alone or in combination) onto the tumor. On day 18 (E18) the upper portion of the CAM was removed, washed in PBS and then directly transferred in PFA (fixation for 48 h). The tumors were then carefully cut away from normal CAM tissue and weighed. Eggs were checked at each treatment time, or at least every two days, for viability during the study. At the end of the study, the number of dead embryos was counted and combined with the observation of eventual visible macroscopic abnormalities (observation done during the sample collection) to evaluate the toxicity.
smiles,measurement,value
"OC[C@H]1O[C@@H](S[C@@H]2O[C@H](CO)[C@H](O)[C@H](n3cc(-c4cccc(F)c4)nn3)[C@H]2O)[C@H](O)[C@@H](n2cc(-c3cccc(F)c3)nn2)[C@H]1O [33DFTG, 3,3′-dideoxy-3,3′-bis-[4-(3-fluorophenyl)-1H-1,2,3-triazol-1-yl]-1,1′-sulfanediyl-di-β-D-galactopyranoside]",tumor size / therapeutic efficacy compared to control group (in words),neither pembrolizumab alone or 33DFTG alone showed significant difference
